Data: PubChem BioAssay AID2177 (The Scripps Research Institute Molecular Screening Center, 2009)
Only a part is listed here, and it is no random draw. Some salts and complexes are drawn in separate pieces, as the source files them; their charges need not balance. The source made the active and inactive calls.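 The calls were made as follows: active = inhibition above the screen-wide mean plus 3 SD, limit set per campaign (cut at about 26% in these data); inactive = the rest.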

By UniProt entry, the sequences of proteins in these tests, tags left out.
UniProt O95372, whole entry: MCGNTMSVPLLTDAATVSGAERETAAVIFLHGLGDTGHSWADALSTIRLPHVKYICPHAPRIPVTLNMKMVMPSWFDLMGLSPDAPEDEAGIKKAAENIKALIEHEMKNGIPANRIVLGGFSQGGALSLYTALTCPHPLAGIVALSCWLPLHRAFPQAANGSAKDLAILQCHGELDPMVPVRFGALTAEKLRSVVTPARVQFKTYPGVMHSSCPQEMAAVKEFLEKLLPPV

Target: Acyl-protein thioesterase 2 (Homo sapiens) (UniProt O95372)
Experiment: LYPLA2 inhibitors, primary screen, counter-screen for PME1 inhibitor project, biochemical, fluorescence polarization, FP-Rh probe ABPP (AID 2177);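 also: 0% = LYPLA2 with DMSO and 100% = wells lacking LYPLA2 enzyme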
Conditions: recombinant LYPLA2, FP-Rh probe fluorescence polarization; at 5.9 µM; stronger effect = higher value

| Compound | inhibition |
| --- | --- |
| COc1ccc(OP(C)(=O)Nc2ccc(SC(F)(F)F)cc2)cc1 (stereo not drawn) | inactive: -5.17% |
| CCOC(=O)c1ccc(NP(C)(=O)Oc2ccc(F)cc2)cc1 (stereo not drawn) | inactive: 12.3% |
| CCN(CC)CCCOC(=O)C(O)(c1ccccc1)C1CCCCC1 (stereo not drawn) | inactive: -3.57% |
| O=[N+]([O-])c1cc([N+](=O)[O-])c(OC2CCCCC2O)c([N+](=O)[O-])c1 (stereo not drawn) | inactive: 2.8% |
| CCCCCOc1ccc(NP(C)(=O)Oc2ccc(Cl)cc2Cl)cc1 (stereo not drawn) | inactive: 6.79% |
| CP(=O)(Nc1ccccc1)Oc1ccc(F)cc1 (stereo not drawn) | inactive: 0.76% |
| CC(C)c1ccc(OP(C)(=O)Nc2ccc(SC(F)(F)F)cc2)cc1 (stereo not drawn) | inactive: -1.81% |
| CP(=O)(Nc1ccccc1F)Oc1ccccc1 (stereo not drawn) | inactive: 8.69% |
| O=C(OCCN1CCN(CCOCc2ccccc2)CC1)C(O)(c1ccccc1)c1ccccc1 | inactive: 0.2% |
| O=C(OC1CN2CCC1CC2)c1ccc([N+](=O)[O-])cc1 (stereo not drawn) | inactive: -2.36% |
| COc1ccc2c(c1O)-c1c(O)c(OC)cc3c1[C@H](C2)[N+](C)(C)CC3.O=[N+]([O-])c1cc([N+](=O)[O-])c([O-])c([N+](=O)[O-])c1[O-] | inactive: 7.29% |
| CP(=O)(Nc1ccc(SC(F)(F)F)cc1)Oc1ccc(F)cc1 (stereo not drawn) | inactive: -3.95% |
| CCOP(C)(=S)SCC(=O)NC(C)(CC)C(=O)O (stereo not drawn) | inactive: 3.52% |
| CP(=O)(Nc1ccc2c(c1)OCCO2)Oc1ccccc1 (stereo not drawn) | inactive: -1.23% |
| Cc1ccccc1NP(C)(=O)Nc1ccccc1C | inactive: -8.74% |
| COc1ccc(OP(C)(=O)Nc2cccc(Br)c2)cc1 (stereo not drawn) | inactive: 12% |
| COc1ccc(NP(C)(=O)Oc2ccccc2OC)cc1 (stereo not drawn) | inactive: 7.29% |
| CN(C)CCOC(=O)C(O)(c1ccccc1)C1CCCCC1 (stereo not drawn) | inactive: 9% |
| O=[N+]([O-])c1cc([N+](=O)[O-])c(NCC2CCS(=O)(=O)C2)c([N+](=O)[O-])c1 (stereo not drawn) | inactive: -3% |
| Nc1ccc2c(ccc3cccnc32)n1.O=[N+]([O-])c1cc([N+](=O)[O-])c(O)c([N+](=O)[O-])c1 | inactive: -5% |
| CP(=O)(OC12CC3CC(CC(C3)C1)C2)OC12CC3CC(CC(C3)C1)C2 | inactive: 7.16% |
| CCOC(=O)c1ccc(NP(C)(=O)Oc2ccc(Cl)cc2)cc1 (stereo not drawn) | inactive: 7.27% |

| Compound | inhibition |
| --- | --- |
| COc1ccc(OP(C)(=O)Nc2ccc(Br)cc2)cc1 (stereo not drawn) | inactive: -3.98% |
| CCN(CC)CC(O)COC(=O)C(O)(c1ccccc1)C1CCCCC1 (stereo not drawn) | inactive: 4.55% |
| CCc1ccc(OP(C)(=O)Nc2cccnc2)cc1 (stereo not drawn) | inactive: -6.04% |
| CP(=O)(Oc1ccccc1)N1CCOC1=O (stereo not drawn) | inactive: -3.13% |
| O=C(OCCCN1CCCC1)C(O)(c1ccccc1)C1CCCCC1 (stereo not drawn) | inactive: -2.44% |
| COc1ccccc1OP(C)(=O)Nc1c(C)n(C)n(-c2ccccc2)c1=O (stereo not drawn) | inactive: 4.08% |
| CP(=O)(Nc1ccc(Cl)cc1)Oc1ccc(F)cc1 (stereo not drawn) | inactive: 0.31% |
| COc1ccccc1OP(C)(=O)Nc1ccccc1Br (stereo not drawn) | inactive: 6.84% |
| CC(C)(C)c1ccc(OP(C)(=O)O)cc1 | inactive: 4.91% |
| CN(C)C(=O)c1c([N+](=O)[O-])cc([N+](=O)[O-])cc1[N+](=O)[O-] | inactive: 3.39% |
| COc1ccccc1OP(C)(=O)Nc1ccc(Br)cc1 (stereo not drawn) | inactive: 0.85% |
| CN(C)CCOC(=O)C(O)(c1ccccc1)C1CCCC1 (stereo not drawn) | inactive: 5.03% |
| COc1ccc(OP(C)(=O)Nc2ccccn2)cc1 (stereo not drawn) | inactive: 1.2% |
| Cc1c(NP(C)(=O)Oc2ccc(C(C)C)cc2)c(=O)n(-c2ccccc2)n1C (stereo not drawn) | inactive: 0.34% |
| O=[N+]([O-])c1cc([N+](=O)[O-])c(Nc2ccccn2)c([N+](=O)[O-])c1 | inactive: 9.58% |
| CCc1ccc(OP(C)(=O)O)cc1 | inactive: -3.35% |
| COc1ccccc1OP(C)(=O)Nc1ccc(C)cc1C (stereo not drawn) | inactive: 6.98% |
| CP(=O)(Nc1ccccn1)Oc1ccccc1 (stereo not drawn) | inactive: 1.37% |
| Cc1cc(C)cc(OP(C)(=O)Nc2cccc(C(F)(F)F)c2)c1 (stereo not drawn) | inactive: -6.24% |
| COc1ccc(OP(C)(=O)Nc2ccccc2Br)cc1 (stereo not drawn) | inactive: -3.81% |
| COc1ccccc1OP(C)(=O)Nc1ccc(C)c(C)c1 (stereo not drawn) | inactive: 1.66% |
| Cc1nc2ccc3ccccc3c2o1.O=[N+]([O-])c1cc([N+](=O)[O-])c(O)c([N+](=O)[O-])c1 | inactive: -0.69% |

| Compound | inhibition |
| --- | --- |
| CP(=O)(Nc1ccc(Cl)cc1Cl)Oc1ccccc1 (stereo not drawn) | inactive: -1.06% |
| CP(=O)(OCCOc1ccccc1)OCCOc1ccccc1 | inactive: -4.96% |
| O=[N+]([O-])c1cc([N+](=O)[O-])c(Nc2cccnc2)c([N+](=O)[O-])c1 | inactive: 5.52% |
| Cc1cccc(C)c1OP(C)(N)=O (stereo not drawn) | inactive: -1.22% |
| CC(C)(C)c1ccc(OP(C)(=O)Nc2ccc(SC(F)(F)F)cc2)cc1 (stereo not drawn) | inactive: -7.06% |
| O=[N+]([O-])c1ccc2c(c1)C=Nc1ccccc1O2 | inactive: 11.2% |
| CCOC(=O)c1ccc(NP(C)(=O)Oc2ccccc2)cc1 (stereo not drawn) | inactive: 7.5% |
| Cc1ccc(NP(C)(=O)Oc2ccccc2)c(C)c1 (stereo not drawn) | inactive: -4.3% |
| COc1ccccc1OP(C)(=O)Nc1ccc(C)cc1 (stereo not drawn) | inactive: 4.58% |
| COc1ccc(OP(C)(=O)Nc2cccc(F)c2)cc1 (stereo not drawn) | inactive: 8.68% |
| COc1ccccc1OP(C)(=O)Nc1cc(Cl)ccc1C (stereo not drawn) | inactive: -4.12% |
| Cc1cc(C)cc(OP(C)(N)=O)c1 (stereo not drawn) | inactive: 0% |
| CCN(CC)CCCOC(=O)C(O)(c1ccccc1)c1ccccc1 | inactive: 6.58% |
| CP(=O)(Oc1ccccc1)OC(c1ccccc1)C(F)(F)F (stereo not drawn) | inactive: 6.39% |
| CP(=O)(Nc1ccc(SC(F)(F)F)cc1)Oc1ccc(Cl)cc1 (stereo not drawn) | inactive: 0.29% |
| Cc1cccc(C)c1OP(C)(=O)Nc1ccc(SC(F)(F)F)cc1 (stereo not drawn) | inactive: -4.87% |
| Cc1cc(C)cc(OP(C)(=O)Nc2ccc(SC(F)(F)F)cc2)c1 (stereo not drawn) | inactive: -1.85% |
| CP(=O)(NC(=O)Nc1ccccc1)Oc1ccccc1 (stereo not drawn) | inactive: 4.47% |
| CCc1ccc(OP(C)(=O)N2CCN(c3ccc([N+](=O)[O-])cc3)CC2)cc1 (stereo not drawn) | inactive: 5.18% |
| CCOP(C)(=S)SCC(=O)NC(C)C(=O)O (stereo not drawn) | inactive: -0.25% |
| O=[N+]([O-])c1cc([N+](=O)[O-])c(O)c([N+](=O)[O-])c1.c1ccc(Oc2ccncc2)cc1 | inactive: 6.4% |
| CCOC(=O)c1ccc(NP(C)(=O)Oc2ccc(OC)cc2)cc1 (stereo not drawn) | inactive: -2.74% |

| Compound | inhibition |
| --- | --- |
| CP(=O)(Nc1ccccn1)Oc1ccc(Cl)cc1 (stereo not drawn) | inactive: 5.36% |
| CP(=S)(Nn1cnnc1)Oc1ccccc1 (stereo not drawn) | inactive: 1.27% |
| COc1ccccc1OP(C)(=O)Nc1ccccc1 (stereo not drawn) | inactive: 6.07% |
| CP(=O)(Nc1ccccc1Br)Oc1ccccc1 (stereo not drawn) | inactive: -5.8% |
| CCOC(=O)C(CC)C1=NC(C)(C)Cc2ccccc21.O=[N+]([O-])c1cc([N+](=O)[O-])c(O)c([N+](=O)[O-])c1 (stereo not drawn) | inactive: -4.74% |
| CC1=C2N=C(C=C3N=C(C(C)=C4[N-][C@@](C)([C@@H]5N=C1[C@](C)(CCC(=O)NC[C@@H](C)OP(=O)([O-])O[C@H]1[C@@H](O)[C@@H](n6cnc7cc(C)c(C)cc76)O[C@@H]1CO)[C@H]5CC(N)=O)[C@@](C)(CC(N)=O)[C@@H]4CCC(N)=O)[C@@](C)(CC(N)=O)[C@@H]3CCC(N)=O)C(C)(C)[C@@H]2CCC(N)=O.[C-]#N.[Co+3] | inactive: 1.72% |
| O=[N+]([O-])c1cc([N+](=O)[O-])c(Nc2nnnn2CCO)c([N+](=O)[O-])c1 | inactive: 3.37% |
| CN1CCCCC1COC(=O)C1(O)c2ccccc2CCc2ccccc21 (stereo not drawn) | inactive: -3.02% |
| COc1ccccc1OP(C)(=O)Nc1c(C)cccc1C (stereo not drawn) | inactive: -7.99% |
| CCCOc1ccc(NP(C)(=O)Oc2ccc(Cl)cc2)cc1 (stereo not drawn) | inactive: 0.42% |
| CP(=O)(Nc1ccc(SC(F)(F)F)cc1)Oc1ccccc1 (stereo not drawn) | inactive: -3.4% |
| O=[N+]([O-])c1cc([N+](=O)[O-])c(-n2nnc3ccccc32)c([N+](=O)[O-])c1 | inactive: 16.8% |
| O=[N+]([O-])c1cc([N+](=O)[O-])c(-c2cnn(-c3ccccc3)c2)c([N+](=O)[O-])c1 | inactive: 12.1% |
| Cc1nc2ccc3ccccc3c2s1.O=[N+]([O-])c1cc([N+](=O)[O-])c(O)c([N+](=O)[O-])c1 | inactive: -3.03% |
| COc1ccccc1OP(C)(=O)Nc1cccc(Br)c1 (stereo not drawn) | inactive: 4.33% |
| Cc1cc(C)cc(OP(C)(=O)Nc2ccc(C)cc2C)c1 (stereo not drawn) | inactive: 1.96% |
| CCOC(=O)c1ccc(NP(C)(=O)Oc2cc(C)cc(C)c2)cc1 (stereo not drawn) | inactive: 7.77% |
| Cc1cc(C)cc(OP(C)(=O)Nc2ccccn2)c1 (stereo not drawn) | inactive: -0.05% |
| CP(=O)(Nc1cccc(Br)c1)Oc1ccccc1 (stereo not drawn) | inactive: 13% |
| Cc1ccc(C)c(NP(C)(=O)Oc2ccccc2)c1 (stereo not drawn) | inactive: 3.95% |
| O=C(O)c1cccc(Nc2c([N+](=O)[O-])cc([N+](=O)[O-])cc2[N+](=O)[O-])c1 | inactive: 3.13% |
| CC1=NCCc2c1[nH]c1ccccc21.O=[N+]([O-])c1cc([N+](=O)[O-])c(O)c([N+](=O)[O-])c1 | inactive: 1.79% |
